The results in this text go back to PubChem BioAssay AID1445 (SRMLSC, 2008).

The chains behind the UniProt entries cited, without tags or fusion partners.
UniProt O96935, whole entry: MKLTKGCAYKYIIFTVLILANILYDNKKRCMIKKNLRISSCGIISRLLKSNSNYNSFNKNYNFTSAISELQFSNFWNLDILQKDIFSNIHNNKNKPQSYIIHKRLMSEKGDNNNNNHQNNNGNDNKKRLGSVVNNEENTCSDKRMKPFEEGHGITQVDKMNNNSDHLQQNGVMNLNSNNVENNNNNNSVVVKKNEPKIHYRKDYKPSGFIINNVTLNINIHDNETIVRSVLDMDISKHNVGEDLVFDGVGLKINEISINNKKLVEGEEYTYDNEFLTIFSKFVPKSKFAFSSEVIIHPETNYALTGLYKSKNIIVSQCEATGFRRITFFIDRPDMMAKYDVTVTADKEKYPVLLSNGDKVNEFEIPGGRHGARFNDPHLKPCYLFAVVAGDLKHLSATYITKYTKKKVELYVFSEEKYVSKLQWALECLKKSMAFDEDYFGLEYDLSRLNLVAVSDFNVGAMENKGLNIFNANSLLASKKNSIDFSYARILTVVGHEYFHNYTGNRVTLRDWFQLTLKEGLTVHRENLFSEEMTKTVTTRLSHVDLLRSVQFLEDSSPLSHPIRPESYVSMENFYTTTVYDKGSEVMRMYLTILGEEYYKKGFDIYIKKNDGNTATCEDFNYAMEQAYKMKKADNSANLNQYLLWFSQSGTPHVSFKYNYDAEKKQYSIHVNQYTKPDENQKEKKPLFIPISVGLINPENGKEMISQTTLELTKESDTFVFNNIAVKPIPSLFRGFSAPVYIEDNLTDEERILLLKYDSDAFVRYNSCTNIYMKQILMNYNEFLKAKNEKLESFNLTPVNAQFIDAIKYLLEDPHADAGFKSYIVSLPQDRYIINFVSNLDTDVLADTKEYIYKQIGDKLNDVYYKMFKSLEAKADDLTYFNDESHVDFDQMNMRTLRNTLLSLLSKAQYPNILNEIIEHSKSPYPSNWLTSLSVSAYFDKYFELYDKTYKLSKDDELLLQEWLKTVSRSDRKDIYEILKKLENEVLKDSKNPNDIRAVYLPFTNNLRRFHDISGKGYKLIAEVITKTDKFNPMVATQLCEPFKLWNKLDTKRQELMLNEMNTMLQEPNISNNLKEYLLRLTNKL

Broadly, the inhibition is the drop in the measured response relative to a control, in per cent.

Structures are written as SMILES. The entries are a selection whose mix differs from that of the whole data set. Entries with a potency or affinity are not part of this list. Some tests of the compounds listed are not included; inactive here does not mean inactive elsewhere. Active and inactive are the calls of the source.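 The calls were made as follows: active = primary inhibition above the hit cutoff, then over 50% inhibition at one or more dose response concentrations (cut at about 23% in these data, passing the limit was not always enough); inconclusive = conflicting primary data, or primary hits not chosen for dose response; inactive = low primary inhibition, or under 50% at every dose.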

For the test, the target named is Aminopeptidase N (Plasmodium falciparum (isolate 3D7)) (UniProt O96935). The experiment in a line: P. falciparum M1AAP inhibitors, biochemical, fluorogenic H-Leu-NHMec substrate, 1536-well (AID 1445).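 Also: plate controls were DMSO full reaction for no effect and no enzyme background for full effect.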 The conditions noted are these: recombinant M1AAP, H-Leu-NHMec fluorogenic kinetic assay; at 30 µM; stronger effect = higher value.
For the molecule `CCN1CCCC(OC(=O)C2(O)c3ccccc3C=Cc3ccccc32)C1` (stereo unspecified), the inhibition is inactive: 7.18%. As for `C=CCN1CCN(CCOC(=O)C(O)(c2ccccc2)c2ccccc2)CC1`, the figure is inactive: -1.58%. Next, `CN(C)C1CCCC1OC(=O)C(O)(c1ccccc1)c1ccccc1` (stereo unspecified): inactive: 2.62%; `Cc1ccccc1C(=O)NCC1(N2CCCCC2)CCCCC1`: inactive: 4.3%; `CC(C)N1C(=O)CC2(CCN(CCOC(=O)C(O)(c3ccccc3)c3ccccc3)CC2)C1=O`: inactive: -1.71%. Next, `CCN(CC)CC(C)C(C)OC(=O)C(O)(c1ccccc1)c1ccccc1` (stereo unspecified): inactive: -0.19%.

Take `O=C(NCC1(N2CCCCC2)CCCCC1)c1cc([N+](=O)[O-])ccc1Cl`: the inhibition is inactive: 13.3%.

On to `CN(C)c1cccc(C(=O)NCC2(N(C)C)CCCCC2)c1`, for which the inhibition is inactive: 2.49%. As for `COc1ccc(Br)c(C(=O)NCC2(N3CCCCC3)CCCCC2)c1`, the figure is inactive: -0.69%. Next, `O=C(OC1CN2CCC1CC2)C(CO)(c1ccccc1)c1ccccc1` (stereo unspecified): inactive: 2.55%. With `COc1cccc(C(=O)NCC2(N3CCCCC3)CCCCC2)c1`, the inhibition was inactive: -3.06%.
